# Measurements taken from US10662475B2, “Compositions and methods for the treatment and prevention of antipsychotic medication-induced weight gain” (Centre for Addiction and Mental Health, priority 2014, dated 2020).
# Sequences of proteins named here, by UniProt entry; tags and fusion partners are left off.
# UniProt P20272, whole entry: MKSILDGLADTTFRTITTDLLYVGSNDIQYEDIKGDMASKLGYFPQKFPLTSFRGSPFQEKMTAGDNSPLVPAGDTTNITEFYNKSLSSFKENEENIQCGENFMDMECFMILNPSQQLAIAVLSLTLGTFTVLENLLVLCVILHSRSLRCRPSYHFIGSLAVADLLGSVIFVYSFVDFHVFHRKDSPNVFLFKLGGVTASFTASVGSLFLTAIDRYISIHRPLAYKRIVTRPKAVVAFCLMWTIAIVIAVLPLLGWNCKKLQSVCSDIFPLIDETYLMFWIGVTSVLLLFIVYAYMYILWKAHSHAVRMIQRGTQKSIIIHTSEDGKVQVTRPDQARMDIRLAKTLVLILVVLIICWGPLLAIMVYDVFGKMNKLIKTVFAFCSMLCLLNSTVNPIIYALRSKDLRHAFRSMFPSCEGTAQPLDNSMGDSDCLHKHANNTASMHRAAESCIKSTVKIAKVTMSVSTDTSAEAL
# Legend:
# [1] = total sample, European ancestry subjects with schizophrenia or schizoaffective disorder, by antipsychotic; mean ± SD
# [2] = target: cannabinoid receptor type 1 (CB1) (Rattus norvegicus, UniProt P20272); conditions: injection of the CB1 antagonist; cited from earlier work
# [3] = total sample N=128, patients treated with clozapine, risperidone, olanzapine or haloperidol
compound,measurement,setting,value
Cc1nc2n(c(=O)c1CCN1CCC(c3noc4cc(F)ccc34)CC1)CCCC2 [risperidone],weight gain (% change from baseline weight),[1],0.77%
Cc1c(C(=O)NN2CCCCC2)nn(-c2ccc(Cl)cc2Cl)c1-c1ccc(Cl)cc1 [rimonabant],feeding induced by intracerebroventricular orexin-A injection,[2],abolishes feeding
Cc1cc2c(s1)Nc1ccccc1N=C2N1CCN(C)CC1 [olanzapine],weight gain,[3],highest weight gain
same,weight gain (% change from baseline weight),[1],10.25%±12.9
